# AlphaSeq binding of Ab-14 light chain variants to a spike HR2 peptide

Target: peptide PDVDLGDISGINAS, taken from heptad repeat 2 (HR2) of SARS-CoV-2 spike.

Parent scFv Ab-14: VH joined to VL by a 15-residue (Gly4Ser)3 linker. Changes lie in the light chain CDRs alone.
VH: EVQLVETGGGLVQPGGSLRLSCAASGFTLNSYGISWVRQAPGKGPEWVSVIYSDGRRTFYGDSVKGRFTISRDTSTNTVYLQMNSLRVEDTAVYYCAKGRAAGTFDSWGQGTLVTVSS
VL: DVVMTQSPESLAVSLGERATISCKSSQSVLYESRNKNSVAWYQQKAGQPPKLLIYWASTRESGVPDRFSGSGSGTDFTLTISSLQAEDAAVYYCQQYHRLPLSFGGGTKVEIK

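The parent was found by panning a naive human phage display library on the peptide. These sequences belong to a second round, designed from the earlier measurements on random variants of the parent. Their group label is 14L_GP_Gen (GP: Gaussian process model; Gen: genetic algorithm; a sequence that several methods proposed may carry one label only). In AlphaSeq, yeast of one mating type display the scFv and yeast of the other type display the target. Pairs that bind mate more often; barcode pairs of the diploids are counted by sequencing. Scores were corrected for input abundance and mapped to Kd with protein pairs of known affinity run in the same pool. Mating was done six times.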

Changes read parent residue, position, new residue, counted from the first residue of the VL shown. Numbers give log10(Kd / nM), so 0 is 1 nM and 3 is 1 µM. Smaller is tighter. The mean shown is taken over the replicates in which the pair was detected. "ND" means that the variant was in the library but no mating with the target was seen in that replicate; the authors take this as a sign of poor binding, and no number exists.

| changes | log10 Kd, replicates | log10 Kd (nM), mean | signal with controls |
|---|---|---|---|
| S25L+S26Q+L30P+W56N+T59Y | 1.13 0.55 0.49 0.50 0.53 0.97 | 0.69 | 1 of 18 (2.11) |
| S25L+S26P+V29N+W56N+T59Q | 0.30 0.17 0.45 -0.03 0.43 0.33 | 0.27 | 2 of 18 (2.74) |
| S25V+L30P+W56E+E61C | -0.25 -0.30 -0.16 -0.29 -0.35 0.09 | -0.21 | 1 of 18 (3.86) |
| S25L+V29E+S38N+W56N | -0.44 -0.54 -0.60 -0.70 -0.66 -0.52 | -0.58 | 1 of 18 (2.59) |
| S25L+V29M+S38N+W56D | -0.01 -0.21 -0.26 -0.31 -0.34 -0.17 | -0.22 | 0 of 18 |
| S25L+S26M+L30P+W56E | -0.17 -0.32 -0.37 -0.63 -0.36 -0.52 | -0.39 | 1 of 18 (2.43) |
| S25L+S26Y+L30P+W56E | 0.30 0.15 0.03 -0.14 0.06 0.04 | 0.07 | 1 of 18 (2.84) |
| S25L+V29H+N35M+W56D | -0.41 -0.28 -0.53 -0.55 -0.49 -0.14 | -0.40 | 0 of 18 |
| S25L+S38N+W56D+E61S | -0.46 -0.61 -0.54 -0.53 -0.76 -0.51 | -0.57 | 1 of 18 (1.62) |
| S25L+V29M+S38A+W56N+T59Q | -0.32 -0.41 -0.58 -0.59 -0.45 -0.17 | -0.42 | 1 of 18 (2.75) |
| S25V+S26P+V29Q+W56Q | 1.14 1.69 1.47 1.23 1.06 1.16 | 1.29 | 1 of 18 (2.24) |
| S25L+S26E+V29E+W56E | -0.06 0.10 -0.05 -0.31 -0.30 -0.05 | -0.11 | 0 of 18 |
| S25L+S26M+V29D+W56N+T59Q | 0.39 0.19 -0.03 0.04 -0.04 0.26 | 0.14 | 2 of 18 (3.42) |
| S25F+V29Y+W56N | -0.05 -0.37 -0.48 -0.17 -0.21 -0.30 | -0.26 | 2 of 18 (2.02) |
| S25V+S26Q+V29F+W56E | 0.67 0.75 0.42 0.28 0.54 0.61 | 0.55 | 2 of 18 (3.09) |
| S25L+L30M+W56E+E61M | 0.23 -0.04 -0.20 -0.16 -0.09 -0.20 | -0.08 | 0 of 18 |
| S25V+V29M+W56N+E61M | 0.34 -0.16 -0.14 -0.07 0.18 0.21 | 0.06 | 0 of 18 |
| K24F+S25L+W56H | -0.07 0.07 0.11 0.00 -0.03 0.28 | 0.06 | 0 of 18 |
| S25L+V29D+K36S+W56G | 0.44 0.04 0.00 -0.06 0.25 0.22 | 0.15 | 1 of 18 (2.24) |
| S25L+S26Q+K36C+W56N+E61L | 0.49 0.70 0.62 0.57 0.58 0.81 | 0.63 | 1 of 18 (2.90) |
| S25L+V29D+W56N+E61F | 0.65 0.58 0.53 0.15 0.56 0.49 | 0.49 | 2 of 18 (2.03) |
| S25L+S26M+V29M+L30E+W56N | 0.24 0.43 0.20 -0.01 0.36 0.50 | 0.29 | 0 of 18 |
| S25L+V29Q+S38A+W56Q | 0.01 -0.16 -0.25 -0.21 -0.25 -0.15 | -0.17 | 2 of 18 (3.18) |
| S25L+V29W+L30E+W56N+T59Q+S62V | -0.48 -0.40 -0.58 -0.63 -0.52 -0.39 | -0.50 | 0 of 18 |
| S25L+S26Q+W56G+E61M | 0.22 0.17 0.12 -0.17 -0.08 0.26 | 0.08 | 1 of 18 (2.92) |
| S25L+S26Q+V29M+L30G+W56N+T59Q | 0.11 -0.27 -0.05 -0.37 -0.05 0.10 | -0.09 | 0 of 18 |
| K24H+S25L+W56N+E61S | ND ND ND ND ND ND | ND | 0 of 18 |
| S25L+S33E+W56H+T59Q | -0.32 -0.32 -0.37 -0.73 -0.46 -0.20 | -0.40 | 0 of 18 |
| S25L+S26Q+V29W+W56N+E61M | 0.72 0.60 0.63 0.33 0.65 0.60 | 0.59 | 0 of 18 |
| S25L+L30C+W56N+E61M | 0.12 -0.12 -0.10 -0.32 -0.03 -0.09 | -0.09 | 6 of 18 (3.01) |
| S25L+S26Q+V29W+N35M+W56N | 0.31 0.47 0.49 0.16 0.23 0.37 | 0.34 | 3 of 18 (3.10) |
| S25M+V29H+W56N | 0.19 -0.14 -0.46 0.06 -0.06 -0.38 | -0.13 | 0 of 18 |
| S25L+V29G+S38N+W56N | ND ND ND ND ND ND | ND | 0 of 18 |
| S25L+S26E+Q27W+V29Q+W56N+T59Q | 0.91 0.48 0.21 0.73 0.76 0.33 | 0.57 | 0 of 18 |
| S25L+Y31G+W56D | 0.19 0.20 -0.10 -0.09 0.11 0.18 | 0.08 | 0 of 18 |
| S25L+S26Y+V29E+W56N+T59Q | -0.12 -0.07 -0.40 -0.15 0.15 -0.04 | -0.11 | 2 of 18 (2.27) |
| S25L+V29H+N35M+W56N+S62M | 0.11 -0.06 -0.23 -0.30 -0.22 -0.03 | -0.12 | 0 of 18 |
| S25L+K36F+W56H | 0.15 0.02 -0.24 -0.14 -0.06 -0.21 | -0.08 | 1 of 18 (3.90) |
| S25L+K36W+W56N+Q96D | 0.43 0.35 0.17 0.16 0.15 0.33 | 0.26 | 0 of 18 |
| S25V+V29K+W56D | 0.47 0.28 0.26 0.20 0.36 0.29 | 0.31 | 1 of 18 (2.66) |
| S25L+V29D+W56G+S62Q | -0.14 -0.14 -0.32 -0.23 -0.32 -0.16 | -0.22 | 0 of 18 |
| S25L+N35D+S38A+W56N | 0.01 0.06 -0.17 -0.17 0.00 0.14 | -0.02 | 1 of 18 (2.53) |

The authors averaged sequences with at least three values out of six and counted those with two or fewer as poor binders. The range of this assay differs from that of the first round, and the authors advise against merging the two. The parent sequence was in this pool as ten entries: three were never detected, three once, and four in most replicates, with averages from 0.34 to 2.37. Nonspecific signal, from three strains lacking the peptide, appeared in 4% of pairings of all light chain designs, centred on 2.64 (5% of these signals below 1.59); values are not corrected for it. For each scFv, signals with the empty controls are counted beside the result, with their mean in brackets.

From the AlphaSeq antibody data of Li et al. 2023 (doi:10.1038/s41467-023-39022-2), copy in the FLAb collection.